Laboratory results from ChEMBL document CHEMBL5038635, “Discovery of Salidroside-Derivated Glycoside Analogues as Novel Angiogenesis Agents to Treat Diabetic Hind Limb Ischemia” (J Med Chem, 2022).

Amino acid sequences for entries named in this document (tags omitted).
UniProt Q61221, whole entry: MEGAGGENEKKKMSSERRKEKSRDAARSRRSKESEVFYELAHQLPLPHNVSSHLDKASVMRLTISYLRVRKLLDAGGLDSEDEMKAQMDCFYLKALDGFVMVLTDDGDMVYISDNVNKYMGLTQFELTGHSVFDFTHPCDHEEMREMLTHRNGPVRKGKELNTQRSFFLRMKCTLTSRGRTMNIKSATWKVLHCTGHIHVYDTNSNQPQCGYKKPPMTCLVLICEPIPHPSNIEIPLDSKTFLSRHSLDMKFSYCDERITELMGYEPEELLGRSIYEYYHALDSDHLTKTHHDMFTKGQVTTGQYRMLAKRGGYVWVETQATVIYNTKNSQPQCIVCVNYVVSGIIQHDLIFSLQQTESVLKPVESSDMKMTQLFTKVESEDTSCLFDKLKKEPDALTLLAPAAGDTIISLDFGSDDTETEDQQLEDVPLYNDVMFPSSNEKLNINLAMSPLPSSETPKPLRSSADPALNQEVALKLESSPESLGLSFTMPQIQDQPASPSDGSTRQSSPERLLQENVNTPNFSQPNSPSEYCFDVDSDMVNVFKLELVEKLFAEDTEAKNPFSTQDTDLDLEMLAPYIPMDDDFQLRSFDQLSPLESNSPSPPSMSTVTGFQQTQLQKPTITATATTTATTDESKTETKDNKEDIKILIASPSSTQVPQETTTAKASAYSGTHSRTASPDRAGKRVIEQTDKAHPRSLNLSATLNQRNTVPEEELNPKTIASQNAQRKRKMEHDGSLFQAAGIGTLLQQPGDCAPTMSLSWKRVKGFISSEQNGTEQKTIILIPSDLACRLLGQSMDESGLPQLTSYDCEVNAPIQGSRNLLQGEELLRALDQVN

Molecular target: Hypoxia-inducible factor 1-alpha (Mus musculus) (UniProt Q61221)
Experiment: Inhibition of HIF-1alpha in mouse C2C12 cells transfected with HRE-driven firefly luciferase gene assessed as fold change in transcriptional activity at 300 uM pretreated with compound for 12 hr followed by hypoxic condition for 24 hrs by dual luciferase reporter gene assay
Type: cell-based
Conditions: time 36.0 hrs

fold change (FC): 2.5
SMILES: COc1ccc(Cc2cccc(O[C@@H]3O[C@H](CO)[C@@H](O)[C@H](O)[C@H]3O)c2)cc1
